This excerpt belongs to a sample that is enriched for hits.
HCMV NEC inh: inhibitors of HCMV UL50-UL53 interaction, biochemical, HTRF; HCMV UL50-UL53 nuclear egress complex (human cytomegalovirus); normalized percent inhibition; inhibition, % (concentration not given with the values); 190,000 tested, 0.15% active; AID 1918969, 2023; in the data active = inhibition above about 27%, passing the limit was not always enough
GIV-Gai inh: inhibitors of GIV peptide binding to Galpha-i3, primary screen, biochemical, fluorescence polarization, FITC-GIV GBA peptide, rat Galphai3; 90 min; stronger effect = lower value; scaled: aluminum fluoride 0%, vehicle 100%; percent of control (FP), % (test concentration not listed); 0.42% of 210,000 active; AID 1224905, 2016;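 active = replicate mean at 85% of control or lower, very high polarization wells dropped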;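 also: wells of about 15 µL received 100 nL stock; the first replicate is given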
GIV Gai FP conf: inhibitors of GIV peptide binding to Galpha-i3, confirmation, biochemical, fluorescence polarization, FITC-GIV peptide, rat Galphai3; shares compounds with GIV-Gai inh; active compounds read low; fluorescence polarization, mP at 100 µM; 580 tested, 38% active;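 active = inhibition score of 15 or more, meaning 100 minus mean polarization as percent of control over three replicates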;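 note: lower mP means peptide displaced from Galphai3 so more inhibition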
GIV-Gai AS conf: inhibitors of GIV binding to Galpha-i3, confirmation, orthogonal assay for GIV-Galpha-i inhibitor project, biochemical, AlphaScreen, His-GIV, GST-Galphai3. 580 tested, 39% active. purified proteins, 90 min; active compounds read low. shares compounds with GIV-Gai inh. AlphaScreen counts at 100 µM;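 active = inhibition score at or above a set limit, where the score is 100 minus the three-replicate mean percent of control signal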
* = called active by the depositor; . = no result.

No. | canonical_smiles | HCMV NEC inh | GIV-Gai inh
1 | N#C/C(=C\c1c(Oc2ccccc2)nc2ccccn2c1=O)C(=O)NCc1ccco1 | -54.7 | 81.1*
2 | CCS(=O)(=O)N1CCCN(C2=NS(=O)(=O)C(c3ccc(F)cc3)=C2C)CC1 | . | 111.7
3 | CCOC(=O)c1ccc(NC(=O)CC(C)(C)CC(=O)O)cc1 | 2.6 | 104.4
4 | O=C(/C=C/c1ccco1)/C=C/c1ccco1 | . | 45.3*
5 | O=C(/C=C/c1ccccc1)/C=C/c1ccco1 | 9.9 | 119.7
6 | O=C(CN1CCC(n2nnc3cc(C(F)(F)F)ccc32)CC1)Nc1ccc(N2CCCC2)cc1 | 6.3 | 106.2
7 | CC(=O)NC1=CC(=O)c2nonc2C1=O | 85.9* | 4.4*
8 | COc1nonc1NC(C)=O | 3.0 | .
9 | CC(C)OC(=O)c1cc2ccsc2n1CC(=O)Nc1cc(F)ccc1F | -8.9 | 103.1
10 | O=C1C=C(O)c2cccc3cccc1c23 | -114.9 | 83.0*

No. | GIV Gai FP conf | GIV-Gai AS conf
1 | 76.3 | 31816
2 | . | .
3 | . | .
4 | 61.3 | 42048
5 | . | .
6 | . | .
7 | 26.4* | 7791*
8 | . | .
9 | . | .
10 | 59 | 15097*

(continued)
No. | canonical_smiles | HCMV NEC inh | GIV-Gai inh
11 | O=C1NC(=O)c2cccc3cccc1c23 | -92.0 | 104.5
12 | O=C(O)c1ccc(C(=O)Nc2cccc(Cl)c2)c(C(=O)O)c1 | -39.7 | 64.2*
13 | O=C(O)c1cccc(NC(=O)c2ccccc2C(=O)O)c1 | -13.4 | 99.7
14 | O=C1Oc2ccccc2C2c3sc(=O)[nH]c3SC(c3ccccc3)C12 (stereo not given) | 7.4 | 112.2
15 | O=c1[nH]c2c(s1)C1c3ccccc3OC3CCCC(S2)C31 (stereo not given) | -141.5 | 71.7*
16 | Cn1c(=O)c(-c2noc(C(=O)NCCN3CCCC3)n2)nn(-c2ccccc2)c1=O | -128.5 | 101.9
17 | C=CCN(CC=C)S(=O)(=O)c1ccc(NC(=O)c2cccs2)cc1 | 1.0 | 107.7
18 | Cc1ccccc1NC(=O)c1cc2ccccc2o1 | . | 100.0
19 | Cc1ccccc1NC(=O)c1sc2nc(-c3cc4ccccc4oc3=O)[nH]c(=O)c2c1C | 5.7 | 70.9*
20 | COCCNC(=O)Cn1cc(C(=O)C(F)(F)F)c2ccccc21 | -19.6 | 95.2

No. | GIV Gai FP conf | GIV-Gai AS conf
11 | . | .
12 | 62.4* | 34772
13 | . | .
14 | . | .
15 | 39.8* | 30587
16 | . | .
17 | . | .
18 | . | .
19 | 38.1* | 23058
20 | . | .

(continued)
No. | canonical_smiles | HCMV NEC inh | GIV-Gai inh
21 | CCCn1ncc(NC(=O)Cn2cc(C)c(-c3cccc(Cl)c3)n2)n1 | -20.1 | .
22 | O=C1CN(C(=O)CSc2ncc(C(F)(F)F)cc2Cl)c2ccccc2N1 | -2.1 | .
23 | O=C1CN(C(=O)CSCc2c(F)cccc2Cl)c2ccccc2N1 | -22.3 | 90.0
24 | Cc1cc2c(cc1C)N(C(=O)C(C)C)C(C)(C)c1ssc(=S)c1-2 | . | 92.8
25 | CCC(C)C(=O)N1c2cc(C)c(C)cc2-c2c(ssc2=S)C1(C)C (stereo not given) | . | 105.9
26 | COc1cccc(CNC(=O)C2CCCN(c3nnc(-n4c(C)ccc4C)s3)C2)c1 (stereo not given) | -6.6 | 104.6
27 | COc1cccc(CNC(=O)C2CCCN2c2nnc(N3CCCCC3=O)s2)c1 (stereo not given) | -11.9 | 87.3

No. | GIV Gai FP conf | GIV-Gai AS conf
21 | . | .
22 | . | .
23 | 72.7 | 45374
24 | 68.1 | 45573
25 | . | .
26 | . | .
27 | 79 | 26734

A section taken from the entries so far, for reference:
No. | canonical_smiles | HCMV NEC inh | GIV-Gai inh
21 | CCCn1ncc(NC(=O)Cn2cc(C)c(-c3cccc(Cl)c3)n2)n1 | -20.1 | .
22 | O=C1CN(C(=O)CSc2ncc(C(F)(F)F)cc2Cl)c2ccccc2N1 | -2.1 | .

No. | GIV Gai FP conf | GIV-Gai AS conf
21 | . | .
22 | . | .
